Consider 1 compound from paper PMC10184128 (Journal of Medicinal Chemistry, 2023).

Protein sequences, listed by entry. Tags and fused reporters are not part of them.
UniProt P43354, whole entry: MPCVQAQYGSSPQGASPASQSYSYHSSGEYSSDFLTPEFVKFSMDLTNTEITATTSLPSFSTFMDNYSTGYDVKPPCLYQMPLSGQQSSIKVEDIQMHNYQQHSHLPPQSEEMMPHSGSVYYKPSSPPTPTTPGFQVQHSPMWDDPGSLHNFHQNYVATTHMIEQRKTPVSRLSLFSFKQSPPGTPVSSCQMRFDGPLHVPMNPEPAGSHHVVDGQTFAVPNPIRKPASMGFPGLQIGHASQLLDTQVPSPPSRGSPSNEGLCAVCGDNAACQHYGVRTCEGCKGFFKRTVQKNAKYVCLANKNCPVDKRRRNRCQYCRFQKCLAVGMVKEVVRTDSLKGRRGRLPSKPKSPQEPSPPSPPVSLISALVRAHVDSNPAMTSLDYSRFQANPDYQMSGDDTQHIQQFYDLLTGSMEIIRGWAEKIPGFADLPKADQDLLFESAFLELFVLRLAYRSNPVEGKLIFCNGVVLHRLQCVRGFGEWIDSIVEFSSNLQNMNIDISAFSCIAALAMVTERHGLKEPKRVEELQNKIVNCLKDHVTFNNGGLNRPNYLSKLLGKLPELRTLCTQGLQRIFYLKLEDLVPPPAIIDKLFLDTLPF

This experiment concerns the target full-length human Nurr1 (NBRE) (Homo sapiens, UniProt P43354). As to conditions: read-out: EC50 full-length human Nurr1 monomer (NBRE).

Turning to `C#CCOc1cccc(-c2ccc(NC(=O)C3=C(C(=O)O)CCC3)c(F)c2)c1` [compound 29, 2-[(3-Fluoro-3′-prop-2-yn-1-yloxy[1,1′-biphenyl]-4-yl)carbamoyl]cyclopent-1-ene-1-carboxylic acid], the EC50 came to 0.22 ± 0.08 µM.

Broadly, the EC50 is the concentration giving half of the maximal effect.
